Calls of active or inactive are those of the source. No cut-off for these calls is given here.
Experiments:
[1] = molecular target: Alpha-1D adrenergic receptor (Rattus norvegicus) (UniProt P23944); assay: Agonist activity at alpha1D adrenoreceptor in Rattus norvegicus (rat) aorta
[2] = Selectivity ratio of Ki for hamster alpha1B adrenoreceptor to Ki for alpha1A adenoreceptor in rat submaxillary gland
[3] = Selectivity ratio of EC50 for alpha1B adrenoreceptor in rat spleen to EC50 for alpha1A adrenoreceptor in rabbit urethra; assay type: tissue-based

Amino acid sequences for entries named in this document (tags omitted).
UniProt P23944, whole entry: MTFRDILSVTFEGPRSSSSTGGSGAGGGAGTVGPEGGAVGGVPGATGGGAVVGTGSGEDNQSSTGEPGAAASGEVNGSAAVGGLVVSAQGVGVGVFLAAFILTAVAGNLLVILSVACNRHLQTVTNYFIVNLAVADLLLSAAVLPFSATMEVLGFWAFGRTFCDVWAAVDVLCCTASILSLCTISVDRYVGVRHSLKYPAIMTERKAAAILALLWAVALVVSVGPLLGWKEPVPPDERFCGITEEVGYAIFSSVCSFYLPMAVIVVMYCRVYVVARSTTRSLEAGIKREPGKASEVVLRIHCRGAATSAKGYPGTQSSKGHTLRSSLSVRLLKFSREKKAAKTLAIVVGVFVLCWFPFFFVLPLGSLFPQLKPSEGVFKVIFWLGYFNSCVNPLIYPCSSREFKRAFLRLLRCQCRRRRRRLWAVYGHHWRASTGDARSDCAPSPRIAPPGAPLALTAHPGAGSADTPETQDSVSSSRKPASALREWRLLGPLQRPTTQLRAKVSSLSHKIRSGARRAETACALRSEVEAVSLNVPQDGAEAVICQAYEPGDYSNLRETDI

For `CS(=O)(=O)Nc1cccc2c1CCCC2c1c[nH]cn1` (stereo not drawn), which Activity [1] is on record?
The Activity was “inactive”.

What about the Ratio Ki [2] of the same molecule?
Its Ratio Ki is 30.

And the Ratio EC50 [3]?
Its Ratio EC50 is 10.
